Activity change, negative = inhibition data for 48 compounds are collected here from PubChem BioAssay AID1467 (National Center for Advancing Translational Sciences (NCATS), 2008).

Chains of the proteins cited; added tags and fusions are not shown.
UniProt P06280, whole entry: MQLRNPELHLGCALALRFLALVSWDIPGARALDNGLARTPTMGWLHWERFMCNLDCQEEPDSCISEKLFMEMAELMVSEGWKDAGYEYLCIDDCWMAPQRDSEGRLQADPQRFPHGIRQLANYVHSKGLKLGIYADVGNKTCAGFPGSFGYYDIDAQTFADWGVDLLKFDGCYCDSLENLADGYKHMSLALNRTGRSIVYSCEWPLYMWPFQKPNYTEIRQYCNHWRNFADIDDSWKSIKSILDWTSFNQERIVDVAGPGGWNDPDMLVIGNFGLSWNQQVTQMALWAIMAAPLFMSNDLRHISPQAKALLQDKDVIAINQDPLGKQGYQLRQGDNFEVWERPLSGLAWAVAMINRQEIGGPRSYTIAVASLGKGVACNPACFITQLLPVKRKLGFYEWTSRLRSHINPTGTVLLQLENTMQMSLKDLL

Structures are written as SMILES. “And” between values parts separate entries of the source, which are not always exact repeats. Equal entries are not always repeated. Only a part is listed here, and it is no random draw. The source made the active and inactive calls. The call rests on the fitted dose curve; in most records, active means well fitted curve in the direction sought with a large enough effect; inconclusive means small, poorly fitted or top-dose-only effect, or effect the other way, or another doubt; inactive means no such curve, though single readings can be large or run the other way.

In the assay the target is Alpha-galactosidase A (Homo sapiens) (UniProt P06280). Kind of assay: qHTS Assay for Inhibitors of Human alpha-Galactosidase at pH 4.5.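 Further: 0% = full activity with enzyme and -100% = basal without enzyme.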 As to conditions: purified enzyme, 4-MU-alpha-Gal fluorescence; at 105 µM (top of the series) unless noted. The text has this:
NIH Chemical Genomics Center [NCGC]
NIH Molecular Libraries Probe Production centers Network [MLPCN]
Assay Submitter (PI): Wei Zheng
Alpha-galactosidase is a homodimeric glycoprotein that hydrolyzes the terminal alpha-galactosyl moieties from glycolipids and glycoproteins. Deficiency of this enzyme results in Fabry Disease with progressive accumulation of globotriaosylceramide and other glycosphingolipids in vascular endothelial cells that causes renal failure, myocardial infarction and stroke, and premature death in patients. It has been reported that the improper folding and trafficking of alpha-galactosidase resulting from the genetic mutations may account for a significant numbers of Fabry patients. […] We optimized this alpha-galactosidase assay in 1536-well plate format for identifying the novel small molecule inhibitors with the structures other than the sugar analogs in order to develop the new pharmacological chaperones. Although this assay has the same protocol as PubChem AID 992, this is a separate project and, therefore, is published as a separate assay
NCGC Assay Protocol Summary:
This is a fluorogenic enzyme assay with 4-Methylumbelliferyl alpha-D-galactopyranoside as the substrate and human […] as the enzyme preparation. Upon the hydrolysis of this fluorogenic substrate, the resulting product, […]. 4-Methyllumbelliferone, can be excited at 365 nm and emits at 440 nm. This fluorescence which can be detected by a standard fluorescence plate reader. Data were normalized to the controls for basal activity (without enzyme) and 100% activity (with enzyme). In the AC50 values were determined from concentration-response data modeled with the standard Hill equation.
Assay buffer: 50 mM citric acid (titrated with potassium phosphate to pH 4.5), 0.005% Tween-20, pH 4.5. (pH 4.5 is an optimal condition for this enzyme assay)
1536-well assay protocol for the human alpha-galactosidase:
(1) Add 2 ul/well of enzyme (12 nM final)
(2) Add 23 nL compounds in DMSO solution. The final titration was 0.7 nM to 77 uM.
(3) Add 1 ul of substrate (400 uM final)
(4) Incubate at room temperature for 20 min.
(5) Add 2 ul stop solution (1M NaOH and 1M Glycine mixture, pH 10)
(6) Detect the assay plate in a ViewLux plate reader (PerkinElmer) with Ex=365 nm and Em=440nm.
Keywords: MLSMR, MLPCN, NIH Roadmap, qHTS, NCGC, : Alpha-galactosidase, Fabry Disease, pharmacological chaperone, chaperone therapy
For orientation: qHTS replaces the single test concentration by a dilution series.
With `Cc1ccc(OP(=O)(Nc2ccccn2)Oc2ccc(C)cc2)cc1`, the activity change, negative = inhibition is inactive: -23.4%.

Take `COC(=O)c1cc2c(s1)N=C(c1ccccc1)N(C)P2(=O)N1CCOCC1` (stereo not drawn): the activity change, negative = inhibition was inactive: -15.9%.

Turning to `O=C(O)COc1ccc([As](=O)(O)O)cc1[N+](=O)[O-]`, the activity change, negative = inhibition is inactive: -1.57%.

Turning to `Nc1ccccc1[As](=O)(O)c1ccccc1`, the activity change, negative = inhibition was inactive: 12.7%.

On to `O=P(Nc1nccs1)(Oc1ccccc1)Oc1ccccc1`, for which the activity change, negative = inhibition was inactive: 1.13%.

With `O=P(Nc1nccs1)(c1ccccc1)c1nc2ccccc2s1` (stereo not drawn), the activity change, negative = inhibition was inactive: 2.78%.

Regarding `CCOP1(=S)c2c(C)nn(CCC#N)c2N=C(c2ccccc2F)N1C` (stereo not drawn), the activity change, negative = inhibition is inactive: 1.61%.

As to `CS(=O)(=O)c1cc([N+](=O)[O-])c2no[n+]([O-])c2c1`, the activity change, negative = inhibition was inactive: -2.11%.

For the compound `CN(C(=O)Cc1ccccc1)[C@@H]1CC[C@]2(CCCO2)C[C@H]1N1CCCC1`, the activity change, negative = inhibition was inactive: 6.06% and inactive: 2.56%.

Take `CCOP1(=S)c2c(C)nn(CCC#N)c2N=C(c2ccc(F)cc2)N1C` (stereo not drawn): the activity change, negative = inhibition was inactive: -13.3%.

Consider `O=[N+]([O-])OCC(CO[N+](=O)[O-])(CO[N+](=O)[O-])CO[N+](=O)[O-]`, for which the activity change, negative = inhibition was inactive: -0.451%.

As for `CC1=NCCc2c1[nH]c1ccccc21.O=[N+]([O-])c1cc([N+](=O)[O-])c(O)c([N+](=O)[O-])c1`, the activity change, negative = inhibition is inactive: -9.61%.

As for `O=[N+]([O-])c1ccc2c(c1)nnn2O`, the activity change, negative = inhibition is inactive: 7.48%.

Consider `O=[N+]([O-])CC(O)c1ccc([N+](=O)[O-])cc1` (stereo not drawn), for which the activity change, negative = inhibition was inactive: -2.97%.

As to `NC(=O)Nc1ccc([As](=O)(O)O)cc1`, the activity change, negative = inhibition was inactive: -7.2% and inactive: -4.88%.

`Cc1cc(C)cc(OP(C)(=O)Nc2ccc(C)cc2C)c1` (stereo not drawn): the activity change, negative = inhibition is inactive: -4.26%.

For `Cc1cccc(OCC(=O)OC2CN3CCC2CC3)c1` (stereo not drawn), the activity change, negative = inhibition is inactive: 2.07%.

As to `O=[As](O)(c1cccc(O)c1)c1cccc(O)c1`, the activity change, negative = inhibition is inactive: -2.63%.

Consider `CCOC(=O)c1ccc(NP(C)(=O)Oc2cc(C)cc(C)c2)cc1` (stereo not drawn), for which the activity change, negative = inhibition is inactive: -2.3%.

As to `CN(C(=O)Cc1ccc(Cl)c(Cl)c1)[C@@H]1CC[C@]2(CCCO2)C[C@H]1N1CCCC1`, the activity change, negative = inhibition was inactive: -17.5%.

Turning to `O=C(OC1CN2CCC1CC2)c1ccc(Cl)cc1` (stereo not drawn), the activity change, negative = inhibition is inactive: -2.04%.

For `COc1ccccc1OP(C)(=O)Nc1cccc(Br)c1` (stereo not drawn), the activity change, negative = inhibition was inactive: 2.33%.

As to `O=[As](O)(O)c1cccnc1`, the activity change, negative = inhibition was inactive: -0.53%.

`COc1cc(C(=O)NCC2(N3CCOCC3)CCCCC2)cc(Cl)c1OC(C)C`: the activity change, negative = inhibition was inactive: -13.1%.

Take `CCOP(=O)(Nc1cccc2ccccc12)OCC`: the activity change, negative = inhibition was inactive: 4.1%.

Take `Cc1ccc(NCCc2c([N+](=O)[O-])cc([N+](=O)[O-])cc2[N+](=O)[O-])cc1`: the activity change, negative = inhibition was inactive: 1.51%.

As for `Nc1cccc2c([As](=O)(O)O)cccc12`, the activity change, negative = inhibition is inactive: 1.05%.

`Cc1cc(C)cc(OP(C)(=O)Nc2ccccn2)c1` (stereo not drawn): the activity change, negative = inhibition was inactive: 1.72%.

With `CP(=O)(Nc1cccc(Br)c1)Oc1ccccc1` (stereo not drawn), the activity change, negative = inhibition is inactive: -4.42%.

With `Cc1ccc(C)c(NP(C)(=O)Oc2ccccc2)c1` (stereo not drawn), the activity change, negative = inhibition was inactive: -8.83%.

On to `CCCOP(=S)(Nc1nc(N)cc(=O)[nH]1)OCCC`, for which the activity change, negative = inhibition was inactive: -12.5%.

As to `CC(C)(C)C(=O)NC(Sc1ncccn1)C(Cl)(Cl)Cl` (stereo not drawn), the activity change, negative = inhibition was inactive: -7.72%.

On to `Clc1n[nH]nc1-c1nn[nH][15n]1`, for which the activity change, negative = inhibition is inactive: -0.863%.

Consider `O=[N+]([O-])c1cc([N+](=O)[O-])c(-n2nnc3ccccc32)c([N+](=O)[O-])c1`, for which the activity change, negative = inhibition was inactive: -4.79%.

For the compound `O=P1(Nc2ccccn2)COc2ccccc2OC1`, the activity change, negative = inhibition is inactive: 9.75%.

For `CCOP(=O)(Nc1ccc(C)cn1)OCC`, the activity change, negative = inhibition is inactive: 4.06%.

Turning to `CN(CCCl)Cc1cc(Cl)c(NC2=NCCN2)c(Cl)c1`, the activity change, negative = inhibition was inactive: -3.13%.

Take `CN(C(=O)Cc1ccc(Cl)c(Cl)c1)[C@@H]1CCCC[C@H]1N1CCCC1`: the activity change, negative = inhibition is inactive: -19.1% and inactive: -1.61%.

Regarding `CC(C)/C=N\N=C(\N)N[N+](=O)[O-]`, the activity change, negative = inhibition is inactive: -7.55%.

Take `Cc1nc2ccc3ccccc3c2s1.O=[N+]([O-])c1cc([N+](=O)[O-])c(O)c([N+](=O)[O-])c1`: the activity change, negative = inhibition was inactive: -3.46%.

In the case of `O=[As](O)(c1ccccc1Br)c1ccccc1Br`, the activity change, negative = inhibition is inactive: 0.385%.

In the case of `CN(C)C1(CNC(=O)c2ccc(S(C)(=O)=O)cc2)CCCCC1`, the activity change, negative = inhibition was inactive: 13.4%.

As to `O=[N+]([O-])c1cc([N+](=O)[O-])c(Nc2nnnn2CCO)c([N+](=O)[O-])c1`, the activity change, negative = inhibition was inactive: -10.8%.

`O=C(/C=C/c1ccccc1)OC1CN2CCC1CC2` (stereo not drawn): the activity change, negative = inhibition was inactive: 0.569%.

`CC1CCC(C(C)C)C(OP(=O)(Nc2ccccn2)c2ccccc2)C1` (stereo not drawn): the activity change, negative = inhibition is inactive: -12.1%.

In the case of `Cc1nn(-c2ccccc2)c2c1P(=O)(N1CCOCC1)N(C)C(c1ccccc1)=N2` (stereo not drawn), the activity change, negative = inhibition is inactive: -0.77%.

Turning to `COc1cc(C2NCCC3(OCCO3)C2(C)C)cc(OC)c1OC.O=[N+]([O-])c1cc([N+](=O)[O-])c(O)c([N+](=O)[O-])c1` (stereo not drawn), the activity change, negative = inhibition was inactive: -7.1%.

As for `CCCOc1ccc(NP(C)(=O)Oc2ccc(Cl)cc2)cc1` (stereo not drawn), the activity change, negative = inhibition was inactive: -0.612%.
